## Ab-14 light chain CDR variants: yeast mating affinities

From the AlphaSeq antibody data of Li et al. 2023 (doi:10.1038/s41467-023-39022-2), copy in the FLAb collection.

All variants were tested on one target, the spike HR2 peptide PDVDLGDISGINAS (SARS-CoV-2).

Ab-14 is the parent antibody, in scFv form: VH, then three GGGGS repeats, then VL. The heavy chain is unchanged in all variants.
VH: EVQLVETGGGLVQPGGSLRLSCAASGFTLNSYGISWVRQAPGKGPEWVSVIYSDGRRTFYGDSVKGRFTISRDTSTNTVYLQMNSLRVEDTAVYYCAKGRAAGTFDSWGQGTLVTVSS
VL: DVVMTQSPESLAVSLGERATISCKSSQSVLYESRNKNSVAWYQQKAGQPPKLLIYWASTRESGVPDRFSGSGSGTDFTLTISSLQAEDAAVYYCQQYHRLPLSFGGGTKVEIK

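Designed CDR sequences, proposed from the first random library and measured here. Group labels follow the data file (Ctrl: baseline library sampled from a position-specific scoring matrix, with some repeated check sequences; GP: Gaussian process model; HC: hill climbing; Gen: genetic algorithm; Gibbs: Gibbs sampling; a sequence that several methods proposed may carry one label only). In AlphaSeq, yeast of one mating type display the scFv and yeast of the other type display the target. The frequency of each diploid, read from paired DNA barcodes, reflects how well the two displayed proteins bind. Scores were corrected for input abundance and mapped to Kd with protein pairs of known affinity run in the same pool. Mating was done six times.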

The whole VL of each variant is written out.
This list holds designs with at most six substitutions.
Values are log10 of the apparent Kd in nM; lower means stronger binding.
The mean shown is taken over the replicates in which the pair was detected.
"nd" marks a missing value. The strain was present, yet no cells mated with the target were sequenced in that replicate, which points to weak or no binding.
Entries are sorted by rising average, undetected variants last.

VL,group,log10 Kd (nM) by replicate,"log10 Kd (nM), mean",signal with controls
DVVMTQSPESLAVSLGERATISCKSSQSWGYESRNKNSVAWYQQKAGQPPKLLIYGASTRESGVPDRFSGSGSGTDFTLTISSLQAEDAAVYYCQQYHRLPLSFGGGTKVEIK,GP_HC,-0.38 / -0.54 / -0.44 / -0.50 / -0.48 / -0.29,-0.44,2 of 18 (2.29)
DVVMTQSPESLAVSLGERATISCHLSQSVLQESRNKNSVAWYQQKAGQPPKLLIYEASQRERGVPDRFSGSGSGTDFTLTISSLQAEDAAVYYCQQYHRLPLSFGGGTKVEIK,GP_Gibbs,-0.23 / -0.45 / -0.50 / -0.42 / -0.66 / -0.09,-0.39,0 of 18
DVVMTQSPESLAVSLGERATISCKLRMSTLYESRNKNSVAWYQQKAGQPPKLLIYHASTREMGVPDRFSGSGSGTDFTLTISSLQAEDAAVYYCQQYHRLPLSFGGGTKVEIK,GP_HC,-0.02 / -0.04 / -0.07 / -0.13 / -0.12 / 0.03,-0.06,1 of 18 (1.73)
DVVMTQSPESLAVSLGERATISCKTGQGVDYESRNKNSVAWYQQKAGQPPKLLIYGASYRESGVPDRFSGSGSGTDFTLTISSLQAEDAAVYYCQQYHRLPLSFGGGTKVEIK,GP_HC,-0.04 / 0.02 / -0.03 / 0.08 / -0.10 / -0.20,-0.04,0 of 18
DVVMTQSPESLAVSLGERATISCKLSQSFLYESRNKNSVAWYQQKAGQPPKLLIYGASTRESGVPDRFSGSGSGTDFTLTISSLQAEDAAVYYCQAYHRLPLSFGGGTKVEIK,GP_HC,0.02 / 0.15 / -0.04 / -0.13 / -0.10 / 0.08,0.00,3 of 18 (2.79)
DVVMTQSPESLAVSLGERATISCKLSQSELYESRNKNSVAWYQQKAGQPPKLLIYQASTRESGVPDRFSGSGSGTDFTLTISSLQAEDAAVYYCQQYHRLPLSFGGGTKVEIK,GP_Gen,0.28 / 0.10 / -0.14 / 0.09 / -0.09 / 0.13,0.06,0 of 18
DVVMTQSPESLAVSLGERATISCKSSQSVDRESRNKNSVAWYQQKAGQPPKLLIYDASTREQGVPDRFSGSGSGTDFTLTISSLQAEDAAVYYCQQYHRLPLSFGGGTKVEIK,GP_HC,0.24 / -0.02 / -0.12 / 0.30 / -0.05 / 0.59,0.15,0 of 18
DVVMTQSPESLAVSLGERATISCKVSQSVLYEQRNKNSVAWYQQKAGQPPKLLIYQASTRESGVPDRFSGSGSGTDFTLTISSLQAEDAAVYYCQQYHRLPLSFGGGTKVEIK,GP_Gen,0.47 / 0.08 / 0.07 / 0.00 / 0.26 / 0.25,0.19,1 of 18 (2.02)
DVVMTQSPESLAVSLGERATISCKSSQSVLYESVNSNSVAWYQQKAGQPPKLLIYAASTRESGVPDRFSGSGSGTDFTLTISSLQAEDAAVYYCQQYHRMPLSFGGGTKVEIK,Ctrl,0.51 / 0.39 / 0.31 / 0.37 / 0.24 / 0.57,0.40,0 of 18
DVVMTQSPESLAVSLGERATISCKISQSVLYESRNKNAVAWYQQKAGQPPKLLIYDASTRESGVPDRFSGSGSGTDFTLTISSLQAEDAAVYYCQMYHWLPLSFGGGTKVEIK,GP_HC,0.70 / 0.44 / 0.18 / 0.26 / 0.40 / 0.67,0.44,3 of 18 (2.46)
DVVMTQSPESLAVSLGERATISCKLSQSWLYESRNKNSVAWYQQKAGQPPKLLIYHASQRLSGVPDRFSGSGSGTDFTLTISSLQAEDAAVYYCQQYHRLPLSFGGGTKVEIK,GP_Gen,0.40 / 0.35 / 0.62 / 0.32 / 0.31 / 1.00,0.50,1 of 18 (3.08)
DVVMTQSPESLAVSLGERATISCKLRQSTLYESRNQNSVAWYQQKAGQPPKLLIYWASTREEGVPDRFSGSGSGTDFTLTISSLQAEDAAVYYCQQYHRLPLSFGGGTKVEIK,GP_HC,0.57 / 0.94 / 1.13 / 0.84 / 0.85 / 0.84,0.86,1 of 18 (2.94)
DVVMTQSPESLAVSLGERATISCKSSQSVLNESANKNSVAWYQQKAGQPPKLLIYWASTRESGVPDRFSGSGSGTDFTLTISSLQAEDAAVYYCQQYHRLPLSFGGGTKVEIK,Ctrl,1.24 / 1.12 / 0.94 / 0.96 / 1.00 / 1.33,1.10,1 of 18 (2.49)
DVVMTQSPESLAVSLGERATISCKSSQSPYYESRNKNSVAWYQQKAGQPPKLLIYAASTRESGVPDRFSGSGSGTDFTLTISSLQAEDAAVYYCAQYHRLPLFFGGGTKVEIK,Ctrl,1.06 / 1.04 / 1.15 / 1.29 / 1.77 / 1.93,1.37,0 of 18
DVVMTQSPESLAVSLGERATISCKSSQSVLYTSRNKNSVAWYQQKAGQPPKLLIYWASTRSSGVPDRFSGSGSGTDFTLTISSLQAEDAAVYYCQQYHRLPLSFGGGTKVEIK,Ctrl,nd / nd / nd / nd / 1.55 / nd,1.55,0 of 18
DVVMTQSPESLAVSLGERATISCKSSQSVLYESRNKNSVAWYQQKAGQPPKLLIYWASNRESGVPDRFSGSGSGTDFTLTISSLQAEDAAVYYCQQYHRLPLSFGGGTKVEIK,Ctrl,nd / nd / nd / nd / nd / 2.12,2.12,0 of 18
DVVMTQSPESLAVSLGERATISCKSSQSVLYESRNKNSVAWYQQKAGQPPKLLIYHASKRESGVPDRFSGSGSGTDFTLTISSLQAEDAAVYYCQQYHRKPLSFGGGTKVEIK,Ctrl,nd / nd / nd / nd / nd / nd,nd,1 of 18 (4.06)

The 2 strongest on average among those seen in every replicate, once more:

| VL | group | log10 Kd (nM) by replicate | log10 Kd (nM), mean | signal with controls |
|---|---|---|---|---|
| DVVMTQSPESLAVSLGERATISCKSSQSWGYESRNKNSVAWYQQKAGQPPKLLIYGASTRESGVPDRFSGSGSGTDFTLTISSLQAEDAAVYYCQQYHRLPLSFGGGTKVEIK | GP_HC | -0.38 / -0.54 / -0.44 / -0.50 / -0.48 / -0.29 | -0.44 | 2 of 18 (2.29) |
| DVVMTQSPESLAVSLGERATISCHLSQSVLQESRNKNSVAWYQQKAGQPPKLLIYEASQRERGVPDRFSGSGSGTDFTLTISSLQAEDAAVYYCQQYHRLPLSFGGGTKVEIK | GP_Gibbs | -0.23 / -0.45 / -0.50 / -0.42 / -0.66 / -0.09 | -0.39 | 0 of 18 |

Values of this round are not directly comparable with the first-round values of the same sequences.
Three control strains display no target. For all light chain designs, 4% of the pairings with them gave a signal, with a median of 2.64 and one signal in twenty below 1.59, so weak values seen in few replicates may be background. The control count says in how many pairings with the empty strains this scFv gave a signal, with their mean in brackets.
The authors averaged sequences with at least three values out of six and counted those with two or fewer as poor binders.